Experimental data from patent publication US20210290732A1, “GLP-1R and GCGR Agonists, Formulations, and Methods of Use” (Spitfire Pharma LLC, priority 2020, published 2021).
Values joined by “and” are separate entries in the source; they are usually repeats but may differ in a detail not shown here. Identical values can stand only once. Like-named read-outs stand apart in the source and are kept apart here.

Legend:
[1] = CMC of Polysorbate 80 in F58 buffer pH 7.7 with added ALT-801 by surface tensiometry; assay type: physicochemical
Text: CMC shifts are simply calculated as CMC in the presence of the ALT-801 less the CMC for the surfactant alone in solution.

plasma proteins = experiment: plasma protein binding by ultracentrifugation, human plasma; assay type: in vitro ADME; conditions: male, pooled plasma, pH 7.4, 15000 ng/mL, 37° C., 6 hours, read-out: mean percent protein binding (converted)
Text: (§1) Such non-covalent binding to albumin is anticipated to slow down the degradation of peptide in plasma and results in decreased renal clearance. […] Pooled plasma was obtained from at least three Sprague Dawley rats, beagle dogs, and cynomolgus monkeys. Pooled human plasma was obtained from three human males (that reportedly had not taken any medication in the previous 7 days before collection). K2EDTA was used as the anticoagulant. The pH of each pool of plasma was adjusted, if needed, to approximately pH 7.4 with hydrochloric acid or sodium hydroxide. Ultracentrifugation was performed using polycarbonate ultracentrifugation tube placed in a S80 AT2 rotor at 37° C. at 357000×g for 6 hours to achieve separation of PUC (supernatant) from plasma proteins. After centrifugation, the PUC was analyzed by LC MS for the calculation of protein binding. Protein Binding was evaluated as Percent unbound=(Cu/Co)×100 and Percent bound=100-percent unbound where Co is the concentration of test article in plasma prior to ultracentrifugation (ng/mL) and Cu is the concentration of test article in plasma in the ultracentrifugate (ng/mL).

plasma proteins of human = experiment: as above; assay type: in vitro ADME
Text: as §1

[2] = physical stability of F58 formulation at +2-8° C. (appearance, RP-HPLC); assay type: physicochemical
Description: F58 is stored at −20° C. […] ALT-801 is a peptide amphiphile formed by the covalent attachment of the hydrophobic alkyl chain of EuPort (e.g., functionalized non-ionic glycolipid surfactant) to the hydrophilic peptide portion. As such, ALT-801 is intended to self-assemble into supramolecular structures such as micelles.

[3] = single-dose pharmacokinetics in male CRL:CD(SD) rats; assay type: in vivo, rat
Text: Sixteen (+2 spares) male CRL:CD(SD) rats, approximately 250-300 g upon study-initiation, were received from the standing colony maintained at Charles River Labs. Animals were maintained on standard diet (Lab Diet C504). Food consumption was monitored on Study Days 1 through 7 by weighing the food and hopper together. Food and drinking water were provided ad libitum throughout the study with the exception of the overnight fasting periods occurring prior to dosing on Study Day −1. All animals were assigned into groups upon receipt.
On Study Day 1, all animals were administered a bolus dose of group dependent test article (TA) via subcutaneous inter(mid)-scapular injection. Individual animal body weights were recorded beginning on Day −1. […] This study activity is described in more detail in Table 9.
Following administration of TA on Study Day 1, a 300 uL sample of whole blood was collected into K2EDTA tubes via the indwelling jugular vein catheter (JVC) at the timepoints listed A maximum obtainable volume of blood was collected via cardiac puncture for the final timepoint (144-hrs post dose) following CO2 euthanasia. Whole blood samples were stored on wet ice for no longer than 30 minutes prior to centrifugation at 2200×g for 10 minutes at 5° C.±3° C. The resulting plasma was then pipetted into polypropylene tubes and stored nominally in a freezer set to maintain a temperature of −80° C. until transfer to Climax Laboratories (San Jose, Calif.) for pharmacokinetic analysis.
Blood samples (˜300 μL) were collected at 2, 4, 8, 24, 48, 72, 96, 120 and 144 h post-dose (n=4 per time point) into ice cooled K2EDTA tubes and stored on ice until processing to plasma by centrifugation at 2200 rpm for 10 min at 5° C.
Analysis was carried out at Climax Laboratories (San Jose, Calif.) on an API-4000 Mass Spectrometer, ESI positive, MRM scan. Samples were loaded on a Shimadzu HPLC/CTC Autosampler with an ACE C4 column (2.1×50 mm, 5 μm). Elution was by gradient from aqueous 0.5% formic acid, 5 mM NH4OAc to 0.5% formic acid in CH3CN/H2O (9:1). Plasma samples (100 μL) were plated (96 well) and 30 μL of internal peptide standard was added (10 m/mL in PBS). A 300 μL aliquot of CH3CN was added and the sample was vortexed and centrifuged to precipitate plasma proteins. After transfer to a 96 well plate, a 40 μL sample was injected and the individual compound peaks were quantitated with standard curves. […] The quantitation limit is 1-2 ng/mL, depending on analog structure.

DIO-NASH mice = experiment: DIO-NASH mouse study, 12 weeks of QD dosing; assay type: in vivo; conditions: for NAFLD activity score (NAS) reduction compared to the start of treatment: 12 weeks
Description: All mice entering the experiment have been pre-biopsied, stratified based on liver biopsy (only animals with fibrosis 1 or above and steatosis 2 or above are included) animals stratified into groups based on Col1a1 immunostaining. […] Body weight (BW) was measured daily for the entire study period, food intake daily for the first 14 days then weekly until study end. Terminal plasma was measured for ALT/AST/TG/TC levels. Terminal liver removal and sampling was carried out for pre to post NAFLD Activity Score (NAS; HE staining) including Fibrosis Stage (Picrosirius red, PSR). Terminal histology was carried out for steatosis, Col1a1 and galectin-3 quantitation. Terminal liver workup included TG+TC (extraction and measurement). Terminal liver biopsies were set up in: 1) 4% PFA for histology, 2) fresh frozen liver for biochemistry, 3) fresh frozen liver for RNA extraction and RNAseq.

[4] = 15000 ng/mL, 37° C., 6 hours, replicate, listed as ALT-801

Structure (SMILES): CC[C@H](C)[C@H](NC(=O)[C@H](Cc1ccccc1)NC(=O)[C@H](CCC(=O)O)NC(=O)[C@@H]1CCCCNC(=O)CC[C@H](NC(=O)[C@H](CC(=O)O)NC(=O)[C@H](CC(C)C)NC(=O)[C@H](Cc2ccc(O)cc2)NC(=O)[C@H](CCCCN)NC(=O)[C@H](CO)NC(=O)[C@H](Cc2ccc(O)cc2)NC(=O)[C@H](CC(=O)O)NC(=O)[C@H](CO)NC(=O)[C@@H](NC(=O)[C@H](Cc2ccccc2)NC(=O)[C@@H](NC(=O)CNC(=O)[C@H](CCC(N)=O)NC(=O)C(C)(C)NC(=O)[C@@H](N)Cc2c[nH]cn2)[C@@H](C)O)[C@@H](C)O)C(=O)N[C@@H](CCCCNC(=O)[C@H]2O[C@@H](OCCCCCCCCCCCCCCCCCC(=O)O)[C@H](O)[C@@H](O)[C@@H]2O)C(=O)N[C@@H](C)C(=O)N[C@@H](C)C(=O)N1)C(=O)N[C@@H](CCC(N)=O)C(=O)N[C@@H](Cc1c[nH]c2ccccc12)C(=O)N[C@@H](CC(C)C)C(=O)N[C@@H](CC(C)C)C(=O)N[C@@H](CCC(N)=O)C(=O)N[C@H](C(N)=O)[C@@H](C)O [SEQ ID NO: 1]
- PS-80 required per mg of ALT-801 to achieve the CMC [1]: at least 1.03 mg
- fraction unbound at 6 h, 15000 ng/mL (plasma proteins): 0.002
- Initial Conc, Mean (plasma proteins of human; 15000 ng/mL nominal): 7610 ng/mL
- Initial Conc, Rep (plasma proteins of human; 15000 ng/mL nominal, replicate, listed as ALT-801): 7580 ng/mL and 7630 ng/mL and 7780 ng/mL
- Percentage of ALT-801 Bound, Mean (plasma proteins of human; 15000 ng/mL, 37° C., 6 hours): 99.8%
- Percentage of ALT-801 Unbound, Mean (plasma proteins of human; 15000 ng/mL, 37° C., 6 hours): 0.213%
- Percentage of ALT-801 Bound (plasma proteins of human; [4]): 99.9% and 99.7%
- Percentage of ALT-801 Unbound (plasma proteins of human; [4]): 0.117% and 0.309%
- Ultracentrifugate, Mean (plasma proteins of human; 37° C., 6 hours): 16.2 ng/mL
- Ultracentrifugate, Rep (plasma proteins of human; 37° C., 6 hours, replicate, listed as ALT-801): BLQ and 8.87^b ng/mL and 23.5 ng/mL
- Percent of Theoretical (plasma proteins of human; initial conc vs 15000 ng/mL): 50.7%
- purity and content by RP-HPLC of the hazy formulation [2]: unchanged
- AUC as % of that of semaglutide ([3]; 10 nmol/kg sc): 93%
- Cmax as % of that of semaglutide ([3]; 10 nmol/kg sc): 54%
- AUC ([3]; 10 nmol/kg sc, listed as 17): 2,350 ng·hr/mL
- Cmax as % of that of semaglutide ([3]; 10 nmol/kg sc, listed as 17): 62%
- MRT ([3]; 10 nmol/kg sc, listed as 17): 21 h
- half-life ([3]; CRL:CD(SD) (Sprague-Dawley), rat, in vivo, iv dose of 10 nmol/kg, data not shown): 10 h
- Cmax ([3]; male, CRL:CD(SD), rat, in vivo, 10 nmol/kg sc): 76 ng/mL
- AUC ([3]; male, CRL:CD(SD), rat, in vivo, 10 nmol/kg sc, read-out: AUC): 2350 ng·h/mL
- bioavailability ([3]; male, CRL:CD(SD), rat, in vivo, 10 nmol/kg subcutaneously vs iv): 29%
- Tmax ([3]; male, CRL:CD(SD), rat, in vivo, sc, 10 nmol/kg, 10 nmol/kg sc, plasma levels still rising at 8 h, read-out: true Tmax): > 8 h
- MRT ([3]; male, CRL:CD(SD), rat, in vivo, sc, 10 nmol/kg, 10 nmol/kg sc, read-out: MRT): 20.6 h
- Tmax ([3]; male, CRL:CD(SD), rat, in vivo, sc, 10 nmol/kg, 10 nmol/kg sc, read-out: Tmax): 8 h
- body weight compared to NASH control (p≤0.001) (DIO-NASH mice; ALT-801 5 and 10 nmol/kg, elafibranor 78 μmol/kg, semaglutide 10 nmol/kg): statistically significantly decreased body weight
- NAFLD activity score (NAS) reduction compared to the start of treatment (DIO-NASH mice; NASH mice, 5 nmol/kg SC QD): 32%
- body weight reached (lean normal body weight range) (DIO-NASH mice; NASH mice, 10 nmol/kg SC QD): ~30 g
- NAFLD activity score (NAS) reduction compared to the start of treatment (DIO-NASH mice; NASH mice, 10 nmol/kg SC QD): 61%
- NAS scores achieved by all animals (DIO-NASH mice; NASH mice, 10 nmol/kg group): ≤ 3
- expression of cell death genes vs NASH vehicle control (DIO-NASH mice; NASH mice, liver RNAseq): suppression of cell death genes
- expression of genes affecting fat usage and transport vs NASH vehicle control (DIO-NASH mice; NASH mice, liver RNAseq): modulation of genes affecting fat usage and transport
- expression of liver inflammation genes (FOSB, JUN, TLR4) vs NASH vehicle control (DIO-NASH mice; NASH mice, liver RNAseq): suppression of liver inflammation genes
- expression of stellate cell pathway pro-fibrosis genes vs NASH vehicle control (DIO-NASH mice; NASH mice, liver RNAseq): suppression of stellate cell pathway pro-fibrosis genes
- liver TC level vs NASH vehicle control, semaglutide and elafibranor (p<0.0001) (DIO-NASH mice; NASH mice, low and high dose): significantly lower
- liver TG level vs NASH vehicle control, semaglutide and elafibranor (p<0.01) (DIO-NASH mice; NASH mice, low and high dose): significantly lower
- liver weight vs NASH vehicle control, semaglutide and elafibranor (p<0.01) (DIO-NASH mice; NASH mice, low and high dose): significantly decreased liver weight
- terminal liver Col1A1 level vs NASH vehicle control, elafibranor and semaglutide (p<0.0001) (DIO-NASH mice; NASH mice, low and high dose): significantly lower
- terminal liver Galectin-3 level vs NASH vehicle control, elafibranor and semaglutide (p<0.0001) (DIO-NASH mice; NASH mice, low and high dose): significantly lower
- terminal plasma ALT levels vs NASH vehicle control, elafibranor and semaglutide (p<0.01) (DIO-NASH mice; NASH mice, low and high dose): significantly lower
- terminal plasma AST levels vs NASH vehicle control (p<0.001) (DIO-NASH mice; NASH mice, low and high dose): significantly lower
- fat content of the livers (DIO-NASH mice; NASH mice, low and high dose, end of treatment): reduction in the fat content of the livers
- number of differentially expressed genes (liver RNA sequencing) (DIO-NASH mice; NASH mice, high dose ALT-801, elafibranor, semaglutide): ~8000
